Values quoted from earlier work in US20130251678A1, “BID DOSAGE REGIMEN FOR DEB025” (NOVARTIS AG, priority 2010, published 2013).

Settings: in vivo; cited from earlier work

## Peg-IFNα2a: pegylated form of interferon alfa 2a with 40 kDa branched PEG, commercially available from Roche
  duration of sustained serum concentrations: 168 h
